In publication PMC3496871 (Molecular bioSystems, 2012):

System: kanamycin A
Assay: purified protein, by the assay type
Settings: 500 μM AcCoA, apparent, pH 7.5, 25.0 °C

Row | Substance | Km (other: Eis_Ava 0.25 μM) | kcat (other: Eis_Ava 0.25 μM) | kcat/Km (other: Eis_Ava 0.25 μM) | Km (other: Eis_Msm 0.25 μM) | kcat (other: Eis_Msm 0.25 μM) | kcat/Km (other: Eis_Msm 0.25 μM)
1 | Eis_Ava (Trichormus variabilis ATCC 29413) | 1002 ± 43 µM | 0.205 s⁻¹ | 205 M⁻¹ s⁻¹ |  |  | 
2 | Eis_Msm (Mycolicibacterium smegmatis MC2 155) |  |  |  | 665 ± 42 µM | 0.36 s⁻¹ | 541 M⁻¹ s⁻¹
